Experimental data from PMC10307939 (Pharmacology Research & Perspectives, 2023).

The chains behind the UniProt entries cited, without tags or fusion partners.
UniProt P42866, whole entry: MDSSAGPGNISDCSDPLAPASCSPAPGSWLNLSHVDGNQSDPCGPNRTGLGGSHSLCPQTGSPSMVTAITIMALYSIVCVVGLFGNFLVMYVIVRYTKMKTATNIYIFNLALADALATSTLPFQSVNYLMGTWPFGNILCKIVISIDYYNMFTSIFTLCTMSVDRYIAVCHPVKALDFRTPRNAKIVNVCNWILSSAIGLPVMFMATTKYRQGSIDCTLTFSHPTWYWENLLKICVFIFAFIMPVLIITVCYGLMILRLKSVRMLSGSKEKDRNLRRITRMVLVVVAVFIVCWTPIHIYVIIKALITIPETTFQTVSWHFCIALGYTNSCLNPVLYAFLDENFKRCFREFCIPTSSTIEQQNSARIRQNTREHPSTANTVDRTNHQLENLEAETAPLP

Molecular target: mouse mu‐opioid receptor (Mus musculus, UniProt P42866)
Test: Ligand‐stimulated [35S]GTPγS binding, mMOR‐CHO membranes
Assay type: biochemical
Conditions: MOR‐CHO cells

DAMGO [reference compound]
Full agonist stimulation (% over basal): 473.5% ± 7.2
